Test system: PBMC from healthy donors
Type: cell-based, human

Substance: aKXVAAWTLKAAa-NH2 [PADRE]
- potency relative to TT 830-843 antigen for activation of T cell responses: about 100 fold

— patent publication US20080279924A1, “HLA class I A2 tumor associated antigen peptides and vaccine compositions” (priority 1999, published 2008)
